Target: T1, His Trx-SGTA fusion protein (wild type) (human, UniProt O43765 1-313)
T1 construct: SGTA, human; also called His-tagged Trx-SGTA; source: expressed and purified as previously described (Leznicki et al., 2011)
Assay: pull-down; about 5 µg purified recombinant protein (released from GST by thrombin, or His Trx fusion) incubated with equivalent amounts of purified GST-tagged proteins on Glutathione Sepharose beads, 4 h at 4°C, 20 mM Tris-HCl pH 8.4, 150 mM NaCl, 2.5 mM CaCl2, 10% glycerol, 1% Triton X-100, 1 mM DTT; western blot
Settings: both partners purified

binding result: binds
B1: GST-tagged mouse Rpn13 C-terminal region (Rpn13 150-407) (domain or fragment, UniProt Q9JKV1 150-407, looked up)
chain: LGGEGGLQSLLGNMSHSQLMQLIGPAGLGGLGGLGALTGPGLASLLGSSGPPASSSSSSSRSQSAAVTPSSSTSSARATPAPSAPAAASATSPSPAPSSGNGTSTAASPTQPIQLSDLQSILATMNVPAGPGGSQQVDLASVLTPEIMAPILANADVQERLLPYLPSGESLPQTADEIQNTLTSPQFQQALGMFSAALASGQLGPLMCQFGLPAEAVEAANKGDVEAFAKAMQNNAKSDPKEGDTKDKKDEEEDMSLD
notes: also called Rpn13 C-terminal domain; source: E. coli BL21 (pGEX-4T1), purified on Glutathione Sepharose 4B, kept on the resin
